Only a part is listed here, and it is no random draw. Active and inactive are the calls of the source.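 The calls were made as follows: active = mean inhibition across duplicate retests at 20 µM reaching about 50% (limit read from the data); inactive = the rest, inconclusive results apart.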
Molecular target: Runt-related transcription factor 1 (Homo sapiens) + Core-binding factor subunit beta (Homo sapiens) (UniProt Q01196+Q13951)
Test: inhibitors of RUNX1 Runt–CBFb-SMMHC binding, primary screen, biochemical, FRET, Cerulean-Runt, Venus-CBFb-SMMHC, uHTS (AID 1434);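 also: 0% = DMSO wells and 100% = wells with excess untagged CBFb-SMMHC; inhibitors lower the FRET ratio by blocking Runt binding to CBFb-SMMHC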
Settings: Cerulean-Runt/Venus-CBFb-SMMHC FRET ratio 530/480, 1 h; at 20 µM; active compounds read high

By UniProt entry, the sequences of proteins in these tests, tags left out.
UniProt Q01196, whole entry, looked up: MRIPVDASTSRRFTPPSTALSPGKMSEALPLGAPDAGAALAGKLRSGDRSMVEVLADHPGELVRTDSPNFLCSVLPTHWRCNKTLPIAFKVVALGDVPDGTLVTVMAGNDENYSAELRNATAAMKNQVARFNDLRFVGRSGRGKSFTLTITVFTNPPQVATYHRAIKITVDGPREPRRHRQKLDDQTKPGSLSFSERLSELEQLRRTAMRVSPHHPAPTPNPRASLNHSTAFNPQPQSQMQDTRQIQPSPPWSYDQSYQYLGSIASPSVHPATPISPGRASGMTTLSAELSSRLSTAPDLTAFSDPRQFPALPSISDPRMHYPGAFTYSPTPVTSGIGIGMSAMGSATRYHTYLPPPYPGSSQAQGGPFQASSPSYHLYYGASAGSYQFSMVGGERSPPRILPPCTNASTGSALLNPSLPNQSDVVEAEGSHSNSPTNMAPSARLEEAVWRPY
UniProt Q13951, whole entry, looked up: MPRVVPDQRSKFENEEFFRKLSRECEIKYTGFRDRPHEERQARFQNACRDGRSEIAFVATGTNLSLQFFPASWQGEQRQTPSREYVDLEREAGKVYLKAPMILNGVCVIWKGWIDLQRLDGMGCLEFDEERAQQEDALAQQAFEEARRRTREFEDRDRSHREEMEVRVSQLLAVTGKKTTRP

Structure (SMILES) | inhibition
CCCOc1ccc(C)cc1CN(CCCl)CCCl | inactive: -1.6%
COc1cc(OC)cc(C(=O)NCC2(N3CCOCC3)CCCCC2)c1 | inactive: -1.4%
CCC(CO)(C(=O)OC1CN2CCC1CC2)c1ccccc1 (centres undefined) | inactive: 0.5%
CC(C)(C)OC(=O)N1CCC(Nc2ccccc2)CC1 | inactive: -0.6%
CCOc1ncccc1C(=O)NCC1(N2CCOCC2)CCCCC1 | inactive: 4.4%
CN(C)c1ccc(C(=O)NCC2(N3CCCCC3)CCCCC2)cc1 | inactive: -0.1%
CCN1CCC(Nc2cccc(F)c2)CC1 | inactive: 2.3%
Fc1ccccc1NC1CCN(Cc2ccccc2)CC1 | inactive: 4%
c1ccc(CN2CCC(Nc3ccccc3)CC2)cc1 | inactive: -2.6%
N#Cc1ccc(C(=O)NCC2(N3CCCCC3)CCCCC2)cc1 | inactive: -0.7%
O=C(OC1CN2CCC1CC2)C1c2ccccc2C=Cc2ccccc21 (centres undefined) | inactive: 2.4%
N/C(=N\O)c1c(N)no[n+]1[O-] | inactive: 2.7%
COc1ccc(C(=O)NCC2(N3CCOCC3)CCCCC2)cc1OC | inactive: 2.5%
CC(C)c1ccc(NC2CCN(C(=O)OC(C)(C)C)CC2)cc1 | inactive: 5.3%
COc1ccc(CN(CCCl)CCCl)cc1Cl | inactive: -1.7%
CN(C)c1cccc(C(=O)NCC2(N3CCCCC3)CCCCC2)c1 | inactive: 0%
O=C(NCC1(N2CCOCC2)CCCCC1)c1cc(=O)[nH]c2ccccc12 | inactive: -7.4%
CN1CCN(CCOC(=O)C(O)(c2ccccc2)c2ccccc2)CC1 | inactive: 3.3%
COc1ccc(NC2CCN(C(=O)OC(C)(C)C)CC2)cc1 | inactive: 10.4%
N#CC1(Nc2ccccc2)CCN(CCc2ccccc2)CC1 | inactive: -2.3%
O=C(NCC1(N2CCCCC2)CCCCC1)c1cccc([N+](=O)[O-])c1 | inactive: -1.2%
Cc1ccc(OCC(C)C)c(CN(CCCl)CCCl)c1 | inactive: -0.9%
COc1ccc(NC2CCN(CCc3ccccc3)CC2)c(OC)c1 | inactive: 0.7%
CCOc1ccc(C)cc1CN(CCCl)CCCl | inactive: -1.4%
N#CC1(Nc2ccccc2)CCN(Cc2ccccc2)CC1 | inactive: 3.7%
O=C(OC1CN2CCC1CC2)C1c2ccccc2Oc2ccccc21 (centres undefined) | inactive: -1.2%
CCOC(=O)N1CCC(Nc2ccc(OC)cc2)CC1 | inactive: -0.5%
O=C(NCC1(N2CCOCC2)CCCCC1)c1cc2ccccc2o1 | inactive: 0.3%
COc1ccc(C(=O)NCC2(N3CCCCC3)CCCCC2)c(OC)c1OC | inactive: -8.2%

— PubChem BioAssay AID1434 (Sanford-Burnham Center for Chemical Genomics, 2008)
